From US7612035B2, “Inhibition of mitogen-activated protein kinase (MAPK) pathway: a selective therapeutic strategy against melanoma” (Van Andel Research Institute, priority 2000, dated 2009)

System: melanotic UACC-257 and MALME-3M cell lines
Experiment: Determination of melanin content (melanogenesis)
Assay type: cell-based, human
Conditions: single agents; melanotic melanoma cell lines
Description: Intracellular melanin was solubilized by lysing cells in 0.2N NaOH and incubating at 60° C. for 1 hour. The relative absorbance at 405 nm for melanin to that at 280 nm for protein was calculated (A405/A280). The control relative absorbance, “A405/A280 (PA alone)” was set to 1.0. The melanin content in each treatment group was expressed as the ratio
[formula] To visualize melanization, 4×10^6 cells from each group were concentrated in a well of 96-well microplate and photographed (e.g., FIG. 5). In Vivo Testing of LF on M14-MEL or SK-MEL-28 Xenografts in Athymic Nude Mice
Melanogenesis is induced during melanocyte (and melanoma cell) differentiation (Busca, R. et al. Mol Biol Cell 9:1367-1378 (1998)). Inhibition of the MAPK pathway was known to induce differentiation of B16 mouse melanoma cells (Englaro, W. et al. J Biol Chem 273:9966-9970 (1998)). […] To address this possibility, cyclic AMP (cAMP)-elevating agents that induce melanoma cell differentiation (Busca et al., supra, and reference cited therein) were examined for their effects on melanogenesis and apoptosis induced by LF or PD98059 in the melanotic UACC-257 and MALME-3M cell lines.

**Q.** Which “melanin production / melanogenesis” value does the source give for `CC(C)CCc1nc2[nH]c(=O)[nH]c(=O)c2[nH]1` here?
**A.** Neither EF nor IBMX treatment induced significant melanogenesis
